Data: patent US20050191296A1

Legend:
[1] = biological target: soluble CD28 (chimeric sCD28/Fc homodimer, R&D Systems catalogue no. 342-CD) (human) (UniProt P10747); assay: SPR (BIAcore), CD28 immobilized, increasing sB7-2 (FIG. 17D)
[2] = biological target: soluble B7-2 (B7-2-Fc, R&D Systems catalogue no. 141-B2) (human) (UniProt P42081); assay: SPR (BIAcore), sCD28 immobilized, sB7-2 as analyte

“soluble B7-2 (B7-2-Fc, R&D Systems catalogue no. 141-B2) (from UniProt P42081 20-239) (Fc fusion)” showed a pKd [1] of 7.72.
Substance “soluble CD28 (chimeric sCD28/Fc homodimer, R&D Systems catalogue no. 342-CD) (from UniProt P10747 19-152) (Fc fusion)” has a pKd [2] of 7.72.

pKd: −log10 of the molar value.
